1 compound from US12172975B2, “1H-indazole carboxamides as receptor-interacting protein kinase 1 inhibitors (RIPK1)” (BRISTOL-MYERS SQUIBB COMPANY, priority 2018, dated 2024) can be followed below.

In the experiment the test system is MLKL phosphorylation in HT29-L23 human colorectal adenocarcinoma cells. Kind of experiment: MLKL Phosphorylation High-Content Assay. In kind it is cell-based. Particulars: read-out: pMLKL (IC50), necroptosis induced with TNFα, SMAC mimetic and Z-VAD, 6 h.

Molecules are shown by their SMILES.

As usually defined, the IC50 is the concentration that gives 50% inhibition. For the compound `[2H]C([2H])([2H])Oc1ncc(-c2ccc3c(C(=O)NC4CC4)n[nH]c3c2)cc1C(=O)NCC[C@H](O)c1ccc(Cl)cc1`, the IC50 was determined as 23 nM.
